# Compound activity (PubChem)
# Hits are enriched below; roughly 2.3% of the tested compounds scored in any of these assays.
# Mito fusion yeast = blocks mitochondrial division or promotes mitochondrial fusion; hit rate 0.23% among 320,000; S. cerevisiae fusion-defective mutant growth rescue, CellTiterGlo 48 h; Potency, µM (doses to about 46.1 µM), for the others: at the top dose growth rescue (activation), most hits filed as activators; AID 485298; also: potency is read from the fitted curve at half-maximal effect; % of control where 0% means no effect; nearly all actives have a fitted effect of over 45% in size
#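 Compounds are tested for their ability to restore growth of mitochondrial fusion-defective yeast strains at non-permissive 37C in YPEG medium over 48 hours. Viability is quantified by luciferase luminescence.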
# Nrf2 block = inhibitors of Nrf2 signaling; A549 ARE-Fluc reporter, luciferase luminescence, 18-24 h; Potency, µM (series often up to 46 µM), for inactives: at the highest dose activity change, negative = inhibition, hits mostly inhibitors; hit rate 2.1% among 360,000; AID 504444; also: potency is read from the fitted curve at half-maximal effect; % is scaled to controls: 0 for no effect and ±100 for the full control effect; nearly all actives have a fitted effect of over 60% in size
#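 Nrf2 function is reported as luminescence of an ARE-controlled luciferase in A549 cells. Compounds were tested at several concentrations, and a CellTiter-Fluor read on the same wells flagged cytotoxicity.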
# miR-21 reporter = miR-21 reporter, rising signal | 340,000 tested, under 10 active | AID 2288 | HeLa miR-21 FLuc reporter, luciferase, 48 h | Potency, µM (titrated, usually from 38.3 µM), for inactives: at the highest dose reporter change, positive = more light; active = well fitted rising curve with a large enough effect; inconclusive = small, poorly fitted or top-dose-only effect; inactive = no such curve, though single readings can be large or run the other way;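 further: % of control where 0% means no effect; miR-21 action dims this reporter so a rising signal means less miR-21 action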
#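 Luminescence from a firefly luciferase reporter carrying a miR-21 binding site downstream, stably expressed under a CMV promoter in HeLa cells that make miR-21 endogenously, reports miRNA modulation after 48 h compound exposure up to approximately 40uM final.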
# Nrf2 ARE act = activates Nrf2 signaling. AID 624171. Potency, µM (top dose mostly 46.1 µM), inactives show at the top dose activation, hits mostly activators. AREc32 ARE-luciferase reporter (MCF7-derived line), luminescence, 24 h. hit rate 0.31% among 410,000; also: potency is read from the fitted curve at half-maximal effect; % of control where 0% means no effect; nearly all actives have a fitted effect of over 65% in size
#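 Cells of the AREc32 ARE-luciferase line are plated in OPTI-MEM containing 5% FBS and left overnight at 37 deg C. Compounds are pinned in, incubation continues 24 hr, and firefly luciferase signal is then measured.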
# A549 viability = kills or reduces viability of A549 cells in Nrf2 counter-screen; A549 ARE-Fluc cells, CellTiter-Fluor viability, 18-24 h; Potency, µM (highest dose often 46 µM), for the others: at the highest dose activity change, negative = cytotoxicity, actives largely listed as inhibitors; hit rate 0.16% among 390,000; also: potency is read from the fitted curve at half-maximal effect; % is scaled to controls: 0 for no effect and ±100 for the full control effect
#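 Cytotoxicity counterscreen: CellTiter-Fluor fluorescence was measured in A549 ARE_Fluc cells after 18-24 h of compound exposure in a concentration series. The subsequent BugLite luminescent read reports ARE-luciferase activity.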
# GRP78 ERSR act = ER stress response induction in glioma; U87-MG GRP78 promoter luciferase reporter, 16 h; Potency, µM, for the others: top-dose activation, actives largely listed as activators; hit rate 0.02% among 420,000; AID 602332; also: potency is read from the fitted curve at half-maximal effect; series mostly up to about 76 µM; % of control where 0% means no effect; nearly all actives have a fitted effect of over 35% in size
#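 Stably transfected U87-MG glioma cells carrying a GRP78-based luciferase sensor; 16 h compound incubation. Luminescence end-point read 10 min after Bright-Glo addition at room temperature.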
# Numbers without * were called inactive; ? = inconclusive; nt = not tested or not shown. Unless noted, calls follow the shape of the dose curve; as a rule, active = well fitted curve in the direction sought with a large enough effect; inconclusive = small, poorly fitted or top-dose-only effect, or another doubt; inactive = no such curve, though single readings can be large; an effect the other way counts as inactive or inconclusive.
# Sequence of screens: Mito fusion yeast, Nrf2 block, miR-21 reporter, Nrf2 ARE act, A549 viability, GRP78 ERSR act
[1] O=C(c1cc2nc(-c3cccs3)cc(C(F)(F)F)n2n1)N1CCCc2ccccc21
 : -8%, 18µM*, -5%, 0%, -17%, -2%
[2] O=C(c1cc2nc(-c3cccs3)cc(C(F)(F)Cl)n2n1)N1CCCc2ccccc21
 : 5%, 0%, -9%, 2%, 10%, 2%
[3] COc1ccc(/C(C)=N/Nc2nccnc2Cl)cc1
 : -8%, ?, nt, 14%, 0%, -1%
[4] C/C(=N\Nc1nccnc1Cl)c1ccc(Br)cc1
 : -10%, 13%, -47%, 11µM*, 0%, 2%
[5] CCCCCCCCCCCCCC[n+]1ccc(C)cc1
 : nt, nt, nt, nt, nt, -11%
[6] CCCCCCCCCCCCCCCC[n+]1ccc(/C=N/O)cc1
 : -6%, 16µM*, ?, -3%, -20%, -15%
[7] COc1ccc(NC(=O)C(=O)NCCc2ccccc2)cc1OC
 : nt, 8%, -7%, 0%, -9%, -2%
[8] CSc1ccc(CN(C)C(=O)CNC(=O)c2sc3ccccc3c2Cl)cc1
 : -2%, 10µM*, -1%, 0%, ?, 1%
[9] C=CCn1c(SCC(=O)Nc2sccc2C(N)=O)nc2ccccc2c1=O
 : 0%, 26µM*, 18%, 1%, -25%, -6%
[10] C=CCn1c(SCC(=O)Nc2sccc2C(N)=O)nc2sc(CC)cc2c1=O
 : -2%, 15µM*, 28%, 15%, ?, -2%
[11] Cc1nnc(N2CCN(c3ccccc3F)CC2)c2c1nnn2Cc1ccccc1
 : nt, -7%, 9%, -1%, -8%, -1%
[12] CC(=O)N1CCN(S(=O)(=O)c2c(C)n(C)c(=O)n(C)c2=O)CC1
 : -4%, 6%, -1%, 0%, -15%, -5%
[13] C=CCn1c(=O)c2ccccc2n2c(=S)[nH]nc12
 : -8%, -3%, 4%, 0%, 6%, 1%
[14] CCOC(=O)c1cc(-c2cccnc2)nn1-c1ccccc1
 : 0%, 12µM*, -1%, 4%, 2%, -1%
[15] O=C(CN1C(=O)/C(=C\C=C\c2ccccc2)SC1=S)Nc1ccc(F)cc1
 : 3%, 5%, -3%, 0%, -6%, 2%
[16] O=C(COC(=O)CCN1C(=O)/C(=C\C=C\c2ccccc2)SC1=S)Nc1cc(F)ccc1F
 : -1%, 8.2µM*, 26%, -1%, ?, -9%
[17] Cc1ccc(CNc2nc3c([nH]2)c(=O)n(C)c(=O)n3C)cc1
 : -3%, 9.2µM*, -1%, 0%, -24%, 1%
[18] O=C(c1ccc(S(=O)(=O)c2cccc(Cl)c2)c([N+](=O)[O-])c1)N1CCN(c2ccccn2)CC1
 : ?, 16µM*, ?, -2%, ?, -15%
[19] O=C(c1cccc(Cl)c1)N1CCN(c2ccccn2)CC1
 : 4%, -9%, -8%, 0%, -8%, -6%
[20] O=C(Nc1ccc(OC(F)(F)F)cc1)c1n[nH]c(Cn2cncn2)n1
 : 0%, -18%, -5%, 0%, -5%, -2%
[21] O=C(CCCn1c(SCC(=O)c2ccc(Cl)cc2)nc2ccccc2c1=O)NCc1ccco1
 : -1%, ?, 0%, 0%, -9%, -4%
[22] Cc1cc2c(s1)c1cnn(Cc3ccc(S(C)(=O)=O)cc3)c(=O)c1n2C
 : nt, 21µM*, nt, nt, -14%, nt
[23] O=c1c(O)c(-c2cc(O)c(O)c(O)c2)oc2cc(O)ccc12
 : nt, nt, nt, nt, nt, -3%
[24] O=c1c(O)c(-c2ccc(O)c(O)c2)oc2cc(O)ccc12
 : nt, 12µM*, nt, 4%, -3%, 0%
[25] CC1=NN(c2ccccc2)C(=O)/C1=C/C=C/c1ccccc1
 : 21%, 3%, -3%, 11µM*, 6%, -1%
[26] CCN(C[C@H]1N[C@@](C)(C(=O)OC)[C@H]2C(=O)N(Cc3ccccc3)C(=O)[C@@H]12)C(=O)COC
 : nt, 4%, nt, -1%, 4%, -4%
[27] CCN(CC)S(=O)(=O)c1cc(-c2nnc(-c3ccc(Br)cc3)o2)ccc1Br
 : 0%, nt, -4%, 1%, 6%, 1%
[28] CCN(CC)S(=O)(=O)c1cc(-c2nnc(-c3ccc(Br)cc3)o2)ccc1Cl
 : 0%, 21µM*, -5%, -1%, -22%, 1%
[29] CCN(CC)C(=O)c1sc2c(c1C)c(=O)n(-c1ccc(OC)cc1OC)c(=O)n2CC(=O)c1ccc(Cl)cc1
 : nt, nt, 1%, 4%, 1%, 0%

# Part of the list above in a different format.
13) C=CCn1c(=O)c2ccccc2n2c(=S)[nH]nc12
14) CCOC(=O)c1cc(-c2cccnc2)nn1-c1ccccc1

Screen / compound no.	13	14
Mito fusion yeast	-8%	0%
Nrf2 block	-3%	12µM*
miR-21 reporter	4%	-1%
Nrf2 ARE act	0%	4%
A549 viability	6%	2%
GRP78 ERSR act	1%	-1%

# Reprinted at random: 2 compounds from above, in no set order.
# Sequence of screens: Mito fusion yeast, Nrf2 block, miR-21 reporter, Nrf2 ARE act, A549 viability, GRP78 ERSR act
[24] O=c1c(O)c(-c2ccc(O)c(O)c2)oc2cc(O)ccc12
 : nt, 12µM*, nt, 4%, -3%, 0%
[27] CCN(CC)S(=O)(=O)c1cc(-c2nnc(-c3ccc(Br)cc3)o2)ccc1Br
 : 0%, nt, -4%, 1%, 6%, 1%
